# Assay results as given in PubChem BioAssay AID834 (PCMD, 2007).
# The list shows a part of the results, in another mix than the full data. Active and inactive are the calls of the source.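 The calls were made as follows: active = inhibition above 20%; inactive = inhibition below 20%.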
# Assay: clotrimazole potentiators killing Candida biofilms, primary screen, with clotrimazole, Alamar Blue (AID 834);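 also: preformed 24 hr biofilms exposed to compound for 48 hr; 0% = biofilm without compound and 100% = blank killed by clotrimazole plus chlorhexidine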
# Settings: C. albicans biofilm + clotrimazole, at 6 µM, active compounds read high
row,SMILES,inhibition
1,CP(=O)(OC12CC3CC(CC(C3)C1)C2)OC12CC3CC(CC(C3)C1)C2,inactive: 7.33%
2,COc1ccccc1OP(C)(=O)Nc1c(C)n(C)n(-c2ccccc2)c1=O (stereo not given),inactive: 6%
3,CP(=O)(Oc1ccccc1)N1CCOC1=O (stereo not given),inactive: 11.1%
4,CC(C)(C)c1ccc(OP(C)(=O)O)cc1,inactive: 4.37%
5,CP(=O)(Nc1ccc(Cl)cc1)Oc1ccc(F)cc1 (stereo not given),inactive: 12.8%
6,COc1ccc(OP(C)(=O)Nc2ccccn2)cc1 (stereo not given),inactive: 1.67%
7,CN(C)CCOC(=O)C(O)(c1ccccc1)C1CCCC1 (stereo not given),inactive: 4.39%
8,CP(=O)(Nc1ccccn1)Oc1ccccc1 (stereo not given),inactive: 3.95%
9,COc1ccccc1OP(C)(=O)Nc1ccc(C)cc1C (stereo not given),inactive: 1.82%
10,CCc1ccc(OP(C)(=O)O)cc1,inactive: 4.77%
11,Cc1c(NP(C)(=O)Oc2ccc(C(C)C)cc2)c(=O)n(-c2ccccc2)n1C (stereo not given),inactive: 1.76%
12,COc1ccccc1OP(C)(=O)Nc1ccc(C)c(C)c1 (stereo not given),inactive: 5.12%
13,CP(=O)(Nc1ccccc1)Oc1ccc(F)cc1 (stereo not given),inactive: 4.8%
14,CCN(CC)CCCOC(=O)C(O)(c1ccccc1)C1CCCCC1 (stereo not given),inactive: 8.45%
15,CP(=O)(Nc1ccccc1F)Oc1ccccc1 (stereo not given),inactive: 8.18%
16,CCOP(C)(=S)SCC(=O)NC(C)(CC)C(=O)O (stereo not given),inactive: 4.66%
17,Cc1ccccc1NP(C)(=O)Nc1ccccc1C,inactive: 5.88%
18,CP(=O)(Nc1ccc2c(c1)OCCO2)Oc1ccccc1 (stereo not given),inactive: 8.04%
19,CN(C)CCOC(=O)C(O)(c1ccccc1)C1CCCCC1 (stereo not given),inactive: 9.22%
20,COc1ccccc1OP(C)(=O)Nc1c(C)cccc1C (stereo not given),inactive: 4.64%
21,Cc1nc2ccc3ccccc3c2s1.O=[N+]([O-])c1cc([N+](=O)[O-])c(O)c([N+](=O)[O-])c1,inactive: 7.96%
22,Cc1cc(C)cc(OP(C)(=O)Nc2ccc(C)cc2C)c1 (stereo not given),inactive: -7.43%
23,Cc1ccc(C)c(NP(C)(=O)Oc2ccccc2)c1 (stereo not given),inactive: 11.7%
24,Cc1cc(C)cc(OP(C)(=O)Nc2ccccn2)c1 (stereo not given),inactive: -0.19%
25,COc1ccc(OP(C)(=O)Nc2cccc(F)c2)cc1 (stereo not given),inactive: 8.59%
26,COc1ccccc1OP(C)(=O)Nc1ccc(C)cc1 (stereo not given),inactive: 6.8%
27,Cc1ccc(NP(C)(=O)Oc2ccccc2)c(C)c1 (stereo not given),inactive: 3.46%
28,CP(=O)(Nc1ccccn1)Oc1ccc(Cl)cc1 (stereo not given),inactive: -1.39%
29,CCOP(C)(=S)SCC(=O)NC(C)C(=O)O (stereo not given),inactive: 2.33%
30,CP(=S)(Nn1cnnc1)Oc1ccccc1 (stereo not given),inactive: -5.12%
